The subject of test [1] is rabbits. Nature of the test: BMP-2 induced bone formation in subcutaneously implanted BCP constructs, biomembrane pocket model. The test is classed as in vivo, rabbit. The following applies: 1.5 μg BMP-2 alone (control group), subcutaneous, 12 weeks. How it is done: First, an assessment study was performed to verify the potential for ectopic bone formation in the biomembrane pocket model. Established constructs for ectopic bone formation, i.e. porous BCP scaffolds loaded with MSCs or BMP-2, were implanted intramuscularly and subcutaneously in rats (n=4) and rabbits (n=4), inside and outside the biomembrane pockets. The bone volume (area%) in the BCP constructs was the primary outcome after 8 (rats) or 12 (rabbits) weeks. Subsequently, the rabbit model (n=11) was used to 1) screen for the potential of inflammatory stimuli to induce bone intramuscularly and to 2) screen for the effects of inflammatory stimuli on BMP-induced bone formation subcutaneously. The bone volume (area%) in the BCP constructs was the primary outcome after 12 weeks.
For the comparative study (Table 2), inflammatory stimuli were added to the BCP, alone or in combination with BMP-2. Either 1.5 μg of BMP-2 or PBS (15 μl volume) was first applied. Fibrin glue (Tissucol 500®, Baxter, Deerfield, Ill., USA) was subsequently used (55 μl volume) to load the inflammatory mediators onto the constructs. […]
After shaving and disinfecting the skin with 10% povidone-iodine, a midline incision was made to expose the paraspinal muscles. […] The incorporation of fluorochromes in the bone was examined by fluorescence microscopy on methyl methacrylate-embedded sections. […]

The test system of test [2] is rats. Nature of the test: ectopic bone formation in BMP-2 loaded BCP blocks implanted subcutaneously in rats (Table 3). The test is classed as in vivo, rat. To be noted: 15 μg/ml BMP-2 alone, subcutaneous, 8 weeks. How it is done: S. aureus (Wood 46) were cultured to mid-log phase in LB medium. The bacteria were stored overnight in PBS at 4° C. and gamma-irradiated at 25 kGy (Isotron Nederland, Ede, The Netherlands). Their inactivation was confirmed by culture on agar plates. The bacteria were stored at −80° C. in PBS supplemented with 20% glycerol until the day of implantation.
Biphasic calcium phosphate (BCP) blocks were made with dimensions of 3.5×3.5×3 mm. […] The BCP blocks were autoclaved at 121° C. for 30 min and dried at 60° C. A volume of 35 μl was seeded onto the BCP blocks with a final concentration of bacteria of 2×10^6-2×10^10 CFU/ml. In half of the samples, BMP-2 was added at a final concentration of 15 μg/ml. Samples were stored at 4° C. until implantation.
8 male Fischer rats (14 weeks old, 300-350 g, F344/IcoCrl, Charles River) were used for the experiment. All animals were housed at the Central Laboratory Animal Institute, Utrecht University. They were allowed to acclimatize for at least two weeks before the surgery. Food and water were given ad libitum. The rats received 3% isoflurane during surgery. […]
The material was fixed in 4% paraformaldehyde, dehydrated by an ethanol series and embedded in methyl methacrylate (MMA, Merck Millipore). […] The samples were completely sectioned and scored for the presence of bone.

B1: BMP-2: recombinant human BMP-2 (InductOS, Wyeth/Pfizer) (protein, UniProt P12643 283-396, looked up)
Bone morphogenetic protein 2: QAKHKQRKRLKSSCKRHPLYVDFSDVGWNDWIVAPPGYHAFYCHGECPFPLADHLNSTNHAIVQTLVNSVNSKIPKACCVPTELSAISMLYLDENEKVVLKNYQDMVVEGCGCR
For B1, the bone area % in test [1] is listed as 5.7±5.3 area %. For the same molecule, in test [2], the “No. rats with bone” value was 1/7.

Source of the values: patent publication US20200138907A1, “Composition for Use in the Treatment of an Individual Suffering a Condition Necessitating New Bone Formation” (priority 2016, published 2020).
